The source of these data is patent publication US8906604B2, “Store-operated calcium cellular assay” (National Center for Biological Sciences, priority 2009, dated 2014).

The target in this experiment is T1, Drosophila muscarinic acetylcholine receptor (mAChR) (Drosophila melanogaster, UniProt P16395).
T1 construct: pUASTmAChR construct generated from the Dm mAChR cDNA clone; expressed in transfected cells; host or cells: primary neurons from 3rd instar larval brains of transgenic Drosophila (ElavC155GAL4; UASdmAchR)
T1 sequence (P16395 1-805): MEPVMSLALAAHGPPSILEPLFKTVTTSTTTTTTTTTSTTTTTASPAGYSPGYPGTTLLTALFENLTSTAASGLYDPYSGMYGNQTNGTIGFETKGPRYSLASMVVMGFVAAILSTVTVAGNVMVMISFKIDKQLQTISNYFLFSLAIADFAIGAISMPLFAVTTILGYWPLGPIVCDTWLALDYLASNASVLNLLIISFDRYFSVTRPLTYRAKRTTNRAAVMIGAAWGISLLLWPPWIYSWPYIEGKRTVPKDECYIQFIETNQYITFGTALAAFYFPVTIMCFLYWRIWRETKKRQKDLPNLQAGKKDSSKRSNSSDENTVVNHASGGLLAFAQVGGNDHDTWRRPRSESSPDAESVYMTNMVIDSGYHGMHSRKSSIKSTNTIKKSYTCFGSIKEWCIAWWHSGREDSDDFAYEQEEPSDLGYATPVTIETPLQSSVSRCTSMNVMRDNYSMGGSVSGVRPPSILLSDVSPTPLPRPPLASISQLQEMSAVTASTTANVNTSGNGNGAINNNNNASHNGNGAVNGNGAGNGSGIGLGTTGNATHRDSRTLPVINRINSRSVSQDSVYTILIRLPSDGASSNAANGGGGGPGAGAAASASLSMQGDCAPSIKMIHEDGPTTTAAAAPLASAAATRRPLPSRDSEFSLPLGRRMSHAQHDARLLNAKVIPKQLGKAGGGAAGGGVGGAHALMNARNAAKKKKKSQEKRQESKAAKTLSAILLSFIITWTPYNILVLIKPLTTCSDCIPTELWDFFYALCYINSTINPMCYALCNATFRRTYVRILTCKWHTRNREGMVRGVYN
Briefly: Carbachol-stimulated Ca2+ release through the InsP3R in larval neurons expressing mAChR (Fluo-4 imaging). The class given is cell-based. Particulars: WT InsP3R; primary larval neurons with pan-neuronal mAChR; increasing carbachol concentrations (5, 10, 20 and 40 μM, FIG. 9d). On the procedure: Ca^2+ release through the InsP3R was measured by stimulating neurons ectopically expressing the Drosophila muscarinic acetylcholine receptor (mAChR) with increasing concentrations of the agonist carbachol. See Cordova, D. et al., Invert Neurosci, 5, 19-28 (2003); and Millar, N. S. et al., J Exp Biol, 198, 1843-1850 (1995). Pan-neuronal expression of the Drosophila mAChR had no measurable effect on viability or flight. […] Expression of mAChR transcripts, as determined by semiquantitative RT-PCR was similar in mutant and WT (FIG. 9c).
Larval neuron cultures were washed twice after growth for 14-16 h with Drosophila M1 medium and loaded in the dark with 2.5 μM Fluo-4 AM in M1 medium containing 0.002% Pluronic F-127, for 30 minutes at room temperature. […] For quantitative analysis, a field with several cells was selected and imaged using the epifluorescence optics of a Nikon TE2000 inverted wide field microscope with an oil objective (60× and 1.4 numerical aperture) lens. […] Emitted light was detected through a 505 nm bandpass filter (FITC filter set, 41001-exciter HQ480/40, dichroic Q505LP, emitter HQ535/50; Chroma, Brattleboro, Vt.). […]
Fluorescent images were acquired using the Evolution QExi CCD camera and In vivo imaging software (Media Cybernetics, Silver Spring, Md.). […] A total of 150-200 cells were analyzed from 5-7 dishes imaged for each genotype for each experiment. […]

Regarding `C[N+](C)(C)CCOC(N)=O` [carbachol], the “Ca^2+ release through the InsP3R (ΔF/F)” value is on record as “increased as a function of carbachol concentration”.
